Screens as filed in PubChem BioAssay.
Rows were chosen to be rich in hits. Some 3.7% of all compounds tested hit in one or more screens of this group.
ClpP mod: qHTS Assay for Activators of ClpP. ATP-dependent Clp protease proteolytic subunit (Bacillus subtilis (strain 168)), P80244. purified B. subtilis ClpP, FRET peptide cleavage, 20 min. Potency, µM (series often up to 57.5 µM). hit rate 1.9% among 340,000; active = well fitted falling curve with a large enough effect; inconclusive = small, poorly fitted or top-dose-only effect; inactive = no such curve, though single readings can be large or run the other way; note: the source files actives as falling curves though it sought activators and does not explain the sign; nearly all actives have a fitted effect of over 65% in size
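ClpP 10 microg/mL final, pH 8 Tris/KCl buffer with BSA, glycerol, Tween-20; compound pinned in; FRET-FV substrate; RT 20 min; Ex320/Em430; ΔFRET vs ADEP 5.8 microM, DMSO, no enzyme.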
Nrf2 inh: blocks Nrf2 signaling; A549 ARE-Fluc reporter, luciferase luminescence, 18-24 h; Potency, µM (top dose mostly 46 µM), most hits filed as inhibitors; hit rate 2.1% among 360,000; note: nearly all actives have a fitted effect of over 60% in size
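Quantitative HTS in A549 cells stably bearing an antioxidant response element-firefly luciferase construct. Inhibition of Nrf2-driven transcription was scored by luminescence after 18-24 h of compound exposure at 37 °C.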
miR-21 FLuc: miR-21 reporter, rising signal. HeLa miR-21 FLuc reporter, luciferase, 48 h. Potency, µM (titrated, usually from 38.3 µM). 340,000 tested, under 10 active. AID 2288; active = well fitted rising curve with a large enough effect; inconclusive = small, poorly fitted or top-dose-only effect; inactive = no such curve, though single readings can be large or run the other way;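 also: miR-21 action dims this reporter so a rising signal means less miR-21 action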
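HeLa cells stably expressing CMV-driven firefly luciferase with a downstream miR-21 binding sequence, endogenously expressing miR-21, were treated with titrations (up to about 40uM final) for 48 hours at 37 degree Celsius. Luciferase luminescence was read after lysis.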
Nrf2 ARE act: Nrf2 pathway activation; AREc32 ARE-luciferase reporter (MCF7-derived line), luminescence, 24 h; Potency, µM (highest dose often 46.1 µM), usual class: activators; hit rate 0.31% among 410,000; AID 624171; note: nearly all actives have a fitted effect of over 65% in size
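ARE-driven firefly luciferase activity in AREc32 cells measured after a 24 hr compound exposure at 37 deg C, using Steady-Glo reagent and a 30 min room-temperature hold.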
A549 tox: A549 cytotoxicity, counter-screen for Nrf2 inhibitors | AID 504648 | Potency, µM (top dose mostly 46 µM), actives largely listed as inhibitors | A549 ARE-Fluc cells, CellTiter-Fluor viability, 18-24 h | hit rate 0.16% among 390,000
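A549 ARE_Fluc cells in 5% FBS OPTI-MEM were exposed to compounds in concentration-response for 18-24 h at 37 deg C. Viability was read by CellTiter-Fluor fluorescence (Ex 405/Em 525) after 30 min, before the luciferase read.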
IL2 activator: IL-2 activation | IL-2 activation reporter assay, cell-based qHTS; stimulated with anti-CD3/CD4/CD28 beads; in transgenic mouse T cells | activation, % (series mostly up to about 46 µM) | hit rate 0.065% among 360,000; in the data active = activation above about 50%; inconclusive = mostly about 30% to 49%
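Screening format: compound pinned onto unstimulated transgenic mouse T cells, 60 min incubation, then anti-CD3/anti-CD4/anti-CD28 bead stimulation for 18 hours at 37 degrees C, followed by EGFP and DsRed detection.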
Hits are given with their value; - = inactive; ? = inconclusive; . = no result given. Unless noted, calls come from the whole dose curve; as a rule, active = well fitted curve in the direction sought with a large enough effect; inconclusive = small, poorly fitted or top-dose-only effect, or another doubt; inactive = no such curve, though single readings can be large; an effect the other way counts as inactive or inconclusive.

Chains of the proteins cited; added tags and fusions are not shown.
ATP-dependent Clp protease proteolytic subunit (Bacillus subtilis (strain 168)), P80244, UniProt P80244, whole entry, looked up: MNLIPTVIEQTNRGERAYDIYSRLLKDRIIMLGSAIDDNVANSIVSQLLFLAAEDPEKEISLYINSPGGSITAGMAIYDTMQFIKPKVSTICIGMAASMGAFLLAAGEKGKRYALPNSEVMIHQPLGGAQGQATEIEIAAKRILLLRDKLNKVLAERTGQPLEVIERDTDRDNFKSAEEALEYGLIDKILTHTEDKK

SMILES | ClpP mod | Nrf2 inh | miR-21 FLuc | Nrf2 ARE act | A549 tox | IL2 activator
CN(CC(=O)Nc1ccccc1C(F)(F)F)C(=O)CCc1nc2sc3c(c2c(=O)[nH]1)CCCC3 | - | ? | - | - | - | -
CN(CC(=O)Nc1ccc(Cl)cc1)C(=O)CCc1nc2sc3c(c2c(=O)[nH]1)CCCC3 | 31.6µM | ? | . | - | - | -
CCN(CC(=O)Nc1ccccc1C(F)(F)F)C(=O)CCc1nc2sc3c(c2c(=O)[nH]1)CCCC3 | 15.8µM | - | . | - | - | -
CCN(CC(=O)NC(C)C)Cc1nc2sc3c(c2c(=O)[nH]1)CCC3 | 12.6µM | - | - | - | - | -
CCOC(=O)c1cc(S(=O)(=O)NCc2cccc(Cl)c2)[nH]n1 | - | . | - | - | - | .
CC1CCC(NC(=O)C2(C)Cc3ccccc3C(=O)N2Cc2ccc(Cl)cc2)CC1 (stereo not drawn) | - | - | - | - | - | .
CC(C)c1nn2c(=O)cc(COC(=O)c3ccco3)nc2s1 | - | - | - | - | - | .
FC(F)Oc1ccc(NC(=S)NCc2ccccc2)cc1Cl | - | 23.1µM | - | - | ? | -
FC(F)Oc1ccc(NC(=S)NCc2ccccc2)cc1 | - | - | - | - | - | -
CC1(C)CC(=O)c2cc(N=C/C(C(=O)c3ccccc3)=C(\O)c3ccccc3)c(=O)oc2C1 | - | - | - | 11.2µM | - | -
CC1(C)CC(=O)C(C=Nc2ccccc2C(=O)O)=C(O)C1 | - | - | - | - | - | -
Cc1sc(NC(=O)c2ccco2)c(C(Nc2ccccn2)c2ccccc2)c1C (stereo not drawn) | - | 20.6µM | - | - | - | -
CCC(=O)Nc1cccc(C(=O)/C=C/c2ccccc2)c1 | 15.8µM | ? | ? | - | - | -
Cc1ccc(S(=O)(=O)NCc2ccccc2)cc1C(=O)N(C)Cc1ccccc1F | 15.8µM | - | - | - | - | -
Cc1ccc(S(=O)(=O)NCc2ccccc2)cc1C(=O)N(C)Cc1ccc(F)cc1 | - | 23.1µM | - | - | - | -
COc1ccccc1Nc1c2ccccc2nc2ccccc12 | - | 14.6µM | ? | - | ? | -
COc1ccccc1Nc1cc(C)nc(Nc2ccccc2OC)n1 | - | - | . | - | - | -
COc1cc(Nc2c3ccccc3nc3ccccc23)cc(OC)c1OC | . | ? | - | - | ? | -
COc1ccccc1OCC(=O)NNc1c2ccccc2nc2ccccc12 | - | 20.6µM | - | - | ? | -
COc1ccccc1Nc1nc(C)cc(C)n1 | 17.8µM | - | - | - | - | -
Oc1cccc(Nc2c3ccccc3nc3ccccc23)c1 | - | 23.1µM | - | - | ? | -
COc1ccc(S(=O)(=O)N2CCN(c3ccc(Cl)c(Cl)c3)CC2)c2ccccc12 | - | - | - | - | - | .
Cc1ccc(C(C)C)c(OCC(=O)Nc2ccc(S(=O)(=O)Nc3onc(C)c3C)cc2)c1 | - | - | - | - | - | .
Cc1cc(CNC(=O)COc2ccc(F)cc2F)c2ccccc2n1 | . | 16.4µM | - | - | - | -
Cc1cc(CNC(=O)COc2ccccc2F)c2ccccc2n1 | - | ? | - | - | - | -
SMILES | ClpP mod | Nrf2 inh | miR-21 FLuc | Nrf2 ARE act | A549 tox | IL2 activator
Cc1nnc2c(Nc3cccc(O)c3)nc3ccccc3n12 | - | - | - | 3.16µM | - | .
Cn1c2c(c(=O)n(C)c1=O)C(c1ccccc1C(F)(F)F)CC(=O)N2 (stereo not drawn) | - | ? | - | - | - | .
O=C(/C=C/c1cc(Br)ccc1O)c1ccco1 | - | - | ? | ? | - | -
COc1ccccc1/C=C/C(=O)c1cc(Br)ccc1OC(=O)c1ccco1 | - | 25.9µM | . | - | ? | -
Cc1ccc(/C=C/C(=O)c2cc(Br)ccc2OC(=O)c2ccco2)cc1 | - | - | - | - | - | -
O=C(/C=C/c1ccccc1O)c1ccco1 | 1.58µM | - | - | ? | - | -
CC(C)(C)c1ccc(C(=O)N2CCN(CCNC(=O)C(=O)NCc3ccc(Cl)cc3)CC2)cc1 | - | 20.6µM | - | - | ? | -
Cn1cnc(C(=O)NCc2ccc(CNC(=O)OC(C)(C)C)cc2)c1C(=O)NCc1ccc(CNC(=O)OC(C)(C)C)cc1 | - | 18.4µM | . | - | - | -
CC(C)(C)OC(=O)NCc1ccc(CNC(=O)c2nc[nH]c2C(=O)N2CCN(C(=O)OC(C)(C)C)CC2)cc1 | - | 25.9µM | . | - | - | -
CC(C)(C)c1ccc(C(=O)NCc2ccc(Cl)cc2)cc1 | - | ? | - | - | - | -
Cc1ccc(NC(=O)c2nc[nH]c2C(=O)N2CCN(C(=O)OC(C)(C)C)CC2)cc1 | - | - | . | - | - | -
CC(C)(C)OC(=O)N1CCN(c2ccc(CNC(=O)c3ccc(Cl)cc3)cc2)CC1 | - | 10.3µM | - | - | - | -
CC(C)(C)OC(=O)NCc1ccc(CNC(=O)c2ncn(Cc3ccccc3)c2C(=O)NCc2ccc(CNC(=O)OC(C)(C)C)cc2)cc1 | - | - | . | - | - | -
CCOc1cccc2sc(N3CCN(C(=O)C(C)(C)C)CC3)nc12 | - | . | - | - | - | .
Cc1ccc(C)c(NC(=O)CCN2C(=O)c3ccccc3Sc3ncccc32)c1 | - | - | ? | - | - | .
COc1ccccc1/C=C1\C=Cc2ccccc21 | - | . | . | . | . | .
Cc1csc2nc(COC(=O)c3cccc(NC(=O)c4cccc(Cl)c4)c3)cc(=O)n12 | - | . | - | - | - | .
O=S(=O)(NCc1cccnc1)c1cccn1-c1ncc(C(F)(F)F)cc1Cl | . | 16.4µM | - | - | - | -
COc1ccc(-c2nc(Cn3c(SCc4cccc(C(F)(F)F)c4)nc4cccnc43)c(C)o2)cc1OC | ? | 23.1µM | - | - | - | .
COc1ccc(CSc2nc3ccncc3n2Cc2nc(-c3ccc(OC)c(OC)c3)oc2C)cc1 | ? | - | - | - | ? | .
Cc1ccc2oc(-c3cccc(NC(=O)Cn4cnc5c(=O)n(C)c(=O)n(C)c54)c3)nc2c1 | . | . | - | . | . | .
CCC(C)c1ccc2oc(-c3ccc(NC(=O)Cn4cnc5c(=O)n(C)c(=O)n(C)c54)cc3)nc2c1 (stereo not drawn) | 11.2µM | - | - | - | - | -
COC(=O)c1ccc(CNC(=O)Cn2cnc3c(SC)nc(N)nc32)cc1 | - | 23.1µM | . | - | - | -
CN(c1ccccc1)S(=O)(=O)c1cccc(NC(=O)c2ccncc2)c1 | - | ? | - | - | - | -
CSc1ncccc1C(=O)Nc1cccc(S(=O)(=O)N(C)c2ccccc2)c1 | - | 11.6µM | . | - | - | -
COc1ccc(NS(=O)(=O)c2cccc(NC(=O)C3=NN(c4ccccc4)C(=O)CC3)c2)cc1 | - | - | - | - | - | -
CN(c1ccccc1)S(=O)(=O)c1cccc(NC(=O)C2=NN(c3ccccc3)C(=O)CC2)c1 | - | 20.6µM | . | - | - | -
